In ChEMBL document CHEMBL2169879, “Design and synthesis of inhibitors of Plasmodium falciparum N-myristoyltransferase, a promising target for antimalarial drug discovery” (J Med Chem, 2012):

Target: T1, Glycylpeptide N-tetradecanoyltransferase (Plasmodium falciparum (isolate 3D7), UniProt Q8ILW6)
T1 sequence (Q8ILW6 whole entry): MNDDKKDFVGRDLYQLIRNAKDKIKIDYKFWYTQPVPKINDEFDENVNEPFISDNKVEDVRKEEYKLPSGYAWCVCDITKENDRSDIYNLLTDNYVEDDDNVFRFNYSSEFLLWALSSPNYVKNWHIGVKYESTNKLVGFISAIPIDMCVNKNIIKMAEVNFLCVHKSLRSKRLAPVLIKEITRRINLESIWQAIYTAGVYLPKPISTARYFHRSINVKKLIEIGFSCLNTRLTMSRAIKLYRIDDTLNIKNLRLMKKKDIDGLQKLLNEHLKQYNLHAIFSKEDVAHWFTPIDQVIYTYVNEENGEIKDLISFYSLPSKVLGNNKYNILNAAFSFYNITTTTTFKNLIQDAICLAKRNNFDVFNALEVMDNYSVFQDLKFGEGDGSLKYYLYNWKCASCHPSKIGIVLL
Assay: Inhibition of Plasmodium falciparum N-myristoyltransferase using [3H]-myristoyl-CoA and GLYVSRLFNRLFQKK(Biotin)-NH2 as substrate after 30 mins scintillation proximity assay

Cc1c(-c2nc(Cc3ccccc3)no2)oc2cccc(OC3CCNCC3)c12
IC50: 2000 nM
